Data reported in patent publication US9624268B2, “Oral peptide inhibitors of interleukin-23 receptor and their use to treat inflammatory bowel diseases” (Protagonist Therapeutics, Inc., priority 2014, dated 2017).

Target: T1, Rat IL-23R (Rattus norvegicus, UniProt F1LX96)
T1 sequence (F1LX96 1-639): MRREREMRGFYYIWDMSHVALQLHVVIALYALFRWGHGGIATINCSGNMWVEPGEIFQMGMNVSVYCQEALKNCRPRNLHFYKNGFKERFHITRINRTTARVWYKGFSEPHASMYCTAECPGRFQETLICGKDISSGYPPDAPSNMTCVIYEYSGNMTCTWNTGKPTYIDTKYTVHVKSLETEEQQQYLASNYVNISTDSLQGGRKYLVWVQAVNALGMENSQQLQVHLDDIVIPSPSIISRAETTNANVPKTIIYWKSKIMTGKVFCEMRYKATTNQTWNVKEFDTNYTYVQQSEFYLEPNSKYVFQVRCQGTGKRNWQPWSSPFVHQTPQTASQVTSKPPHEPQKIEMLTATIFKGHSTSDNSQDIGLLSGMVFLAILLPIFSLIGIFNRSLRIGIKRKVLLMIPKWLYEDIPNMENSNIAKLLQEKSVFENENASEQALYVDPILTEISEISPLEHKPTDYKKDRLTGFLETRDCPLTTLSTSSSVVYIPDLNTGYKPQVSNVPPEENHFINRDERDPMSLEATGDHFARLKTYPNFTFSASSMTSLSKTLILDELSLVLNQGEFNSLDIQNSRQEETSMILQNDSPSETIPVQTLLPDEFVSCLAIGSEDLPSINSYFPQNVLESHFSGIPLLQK
Test: Rat IL-23R Competitive Binding ELISA (Rat ELISA)
Conditions: Table 5B thioethers

SMILES	IC50 [nM]
COc1ccc(C[C@H](NC(=O)[C@@H]2CSCC[C@H](NC(C)=O)C(=O)N[C@@H](CCC(N)=O)C(=O)N[C@@H]([C@@H](C)O)C(=O)N[C@@H](Cc3c[nH]c4ccccc34)C(=O)N[C@@H](CCC(N)=O)C(=O)N2)C(=O)N[C@@H](Cc2ccc(O)c(C(C)(C)C)c2)C(=O)N[C@@](C)(CCCCN)C(=O)N[C@@H](CCC(=O)O)C(=O)N[C@@H](CC(N)=O)C(=O)NCC(N)=O)cc1 [compound 725]	100 to 1000
COc1ccc(C[C@H](NC(=O)[C@@H]2CSCC[C@H](NC(C)=O)C(=O)N[C@@H](CCC(N)=O)C(=O)N[C@@H]([C@@H](C)O)C(=O)N[C@@H](Cc3c[nH]c4ccccc34)C(=O)N[C@@H](CCC(N)=O)C(=O)N2)C(=O)N[C@@H](Cc2ccc3ccccc3c2)C(=O)N[C@@](C)(CCCCN)C(=O)N[C@@H](CCCCNC(C)=O)C(=O)N[C@@H](CC(N)=O)C(=O)N[C@@H](CO)C(N)=O)cc1 [compound 808]	10 to 25
COc1ccc(C[C@H](NC(=O)[C@@H]2CSCC[C@H](NC(C)=O)C(=O)N[C@@H](CCC(N)=O)C(=O)N[C@@H]([C@@H](C)O)C(=O)N[C@@H](Cc3c[nH]c4ccccc34)C(=O)N[C@@H](CCC(N)=O)C(=O)N2)C(=O)N[C@@H](Cc2ccc3ccccc3c2)C(=O)N[C@@](C)(CCCCN)C(=O)N[C@@H](CCCCNC(C)=O)C(=O)N[C@@H](CC(N)=O)C(=O)N[C@@H](C)C(N)=O)cc1 [compound 809]	10 to 25
COc1ccc(C[C@H](NC(=O)[C@@H]2CSCC[C@H](NC(C)=O)C(=O)N[C@@H](CC(N)=O)C(=O)N[C@@H]([C@@H](C)O)C(=O)N[C@@H](Cc3c[nH]c4ccccc34)C(=O)N[C@@H](CCC(N)=O)C(=O)N2)C(=O)N[C@@H](Cc2ccc3ccccc3c2)C(=O)N[C@@](C)(CCCCN)C(=O)N[C@@H](CCCCNC(C)=O)C(=O)N[C@@H](CC(N)=O)C(=O)NCC(N)=O)cc1 [compound 817]	25 to 100
COc1ccc(C[C@H](NC(=O)[C@@H]2CSCC[C@H](NC(C)=O)C(=O)N[C@@H](CCC(N)=O)C(=O)N[C@@H]([C@@H](C)O)C(=O)N[C@@H](Cc3c[nH]c4ccccc34)C(=O)N[C@@H](CCC(N)=O)C(=O)N2)C(=O)N[C@@H](Cc2ccc3ccccc3c2)C(=O)N[C@@](C)(CCCCN)C(=O)N[C@@H](CCCCNC(C)=O)C(=O)N[C@@H](CC(N)=O)C(=O)N[C@@H](C)C(=O)N[C@@H](CCC(=O)O)C(N)=O)cc1 [compound 825]	10 to 25
CC(=O)N[C@H]1CCSC[C@@H](C(=O)N[C@@H](Cc2ccc(OCCN)cc2)C(=O)N[C@@H](Cc2ccc3ccccc3c2)C(=O)N[C@@](C)(CCCCN)C(=O)N[C@@H](CC(=O)O)C(=O)N[C@@H](CC(N)=O)C(=O)NCC(N)=O)NC(=O)[C@H](CCC(N)=O)NC(=O)[C@H](Cc2c[nH]c3ccccc23)NC(=O)[C@H]([C@@H](C)O)NC(=O)[C@H](CCC(N)=O)NC1=O [compound 855]	10 to 25
CC(=O)N[C@H]1CCSC[C@@H](C(=O)N[C@@H](Cc2ccc(OCCN)cc2)C(=O)N[C@@H](Cc2ccc3ccccc3c2)C(=O)N[C@@](C)(CC(C)C)C(=O)N[C@@H](CCC(=O)O)C(=O)N[C@@H](CC(N)=O)C(=O)N[C@@H](CC(N)=O)C(N)=O)NC(=O)[C@H](CCC(N)=O)NC(=O)[C@H](Cc2c[nH]c3ccccc23)NC(=O)[C@H]([C@@H](C)O)NC(=O)[C@H](CCC(N)=O)NC1=O [compound 951]	< 10
CC(=O)N[C@H](CCCNC(=N)N)C(=O)N[C@H]1CCSC[C@@H](C(=O)N[C@@H](Cc2ccc(OCCN)cc2)C(=O)N[C@@H](Cc2ccc3ccccc3c2)C(=O)N[C@@](C)(CCCCN)C(=O)N[C@@H](CCC(=O)O)C(=O)N[C@@H](CC(N)=O)C(=O)N[C@@H](CC(N)=O)C(N)=O)NC(=O)[C@H](CCC(N)=O)NC(=O)[C@H](Cc2c[nH]c3ccccc23)NC(=O)[C@H]([C@@H](C)O)NC(=O)[C@H](CCC(N)=O)NC1=O [compound 968]	< 10
CC(=O)N[C@@H](Cc1ccc2ccccc2c1)C(=O)N[C@H]1CCSC[C@@H](C(=O)N[C@@H](Cc2ccc(OCCN)cc2)C(=O)N[C@@H](Cc2ccc3ccccc3c2)C(=O)N[C@@](C)(CCCCN)C(=O)N[C@@H](CCC(=O)O)C(=O)N[C@@H](CC(N)=O)C(=O)N[C@@H](CC(N)=O)C(N)=O)NC(=O)[C@H](CCC(N)=O)NC(=O)[C@H](Cc2c[nH]c3ccccc23)NC(=O)[C@H]([C@@H](C)O)NC(=O)[C@H](CCC(N)=O)NC1=O [compound 971]	10 to 25
CC(=O)N[C@H](CCC(N)=O)C(=O)N[C@H]1CCSC[C@@H](C(=O)N[C@@H](Cc2ccc(OCCN)cc2)C(=O)N[C@@H](Cc2ccc3ccccc3c2)C(=O)N[C@@](C)(CCCCN)C(=O)N[C@@H](CCC(=O)O)C(=O)N[C@@H](CC(N)=O)C(=O)N[C@@H](CC(N)=O)C(N)=O)NC(=O)[C@H](CCC(N)=O)NC(=O)[C@H](Cc2c[nH]c3ccccc23)NC(=O)[C@H]([C@@H](C)O)NC(=O)[C@H](CCC(N)=O)NC1=O [compound 974]	< 10
